Entries after “also recorded” stand apart in the source; their conditions may differ.
What was measured:
[1] = target: T1, presynaptic NMDARs of spinal dorsal horn neurons (Rattus norvegicus, UniProt P35439+Q00959+Q00960); experiment: Spinal cord slice recordings, morphine-treated rats; assay type: cell-based
T1 construct: from tissue; host or cells: rat lumbar spinal cord slices (lamina II neurons) and synaptosomes made from them

By UniProt entry, the sequences of proteins in these tests, tags left out. Residues count along the entry.
UniProt Q00959, 20-1464 limits assumed: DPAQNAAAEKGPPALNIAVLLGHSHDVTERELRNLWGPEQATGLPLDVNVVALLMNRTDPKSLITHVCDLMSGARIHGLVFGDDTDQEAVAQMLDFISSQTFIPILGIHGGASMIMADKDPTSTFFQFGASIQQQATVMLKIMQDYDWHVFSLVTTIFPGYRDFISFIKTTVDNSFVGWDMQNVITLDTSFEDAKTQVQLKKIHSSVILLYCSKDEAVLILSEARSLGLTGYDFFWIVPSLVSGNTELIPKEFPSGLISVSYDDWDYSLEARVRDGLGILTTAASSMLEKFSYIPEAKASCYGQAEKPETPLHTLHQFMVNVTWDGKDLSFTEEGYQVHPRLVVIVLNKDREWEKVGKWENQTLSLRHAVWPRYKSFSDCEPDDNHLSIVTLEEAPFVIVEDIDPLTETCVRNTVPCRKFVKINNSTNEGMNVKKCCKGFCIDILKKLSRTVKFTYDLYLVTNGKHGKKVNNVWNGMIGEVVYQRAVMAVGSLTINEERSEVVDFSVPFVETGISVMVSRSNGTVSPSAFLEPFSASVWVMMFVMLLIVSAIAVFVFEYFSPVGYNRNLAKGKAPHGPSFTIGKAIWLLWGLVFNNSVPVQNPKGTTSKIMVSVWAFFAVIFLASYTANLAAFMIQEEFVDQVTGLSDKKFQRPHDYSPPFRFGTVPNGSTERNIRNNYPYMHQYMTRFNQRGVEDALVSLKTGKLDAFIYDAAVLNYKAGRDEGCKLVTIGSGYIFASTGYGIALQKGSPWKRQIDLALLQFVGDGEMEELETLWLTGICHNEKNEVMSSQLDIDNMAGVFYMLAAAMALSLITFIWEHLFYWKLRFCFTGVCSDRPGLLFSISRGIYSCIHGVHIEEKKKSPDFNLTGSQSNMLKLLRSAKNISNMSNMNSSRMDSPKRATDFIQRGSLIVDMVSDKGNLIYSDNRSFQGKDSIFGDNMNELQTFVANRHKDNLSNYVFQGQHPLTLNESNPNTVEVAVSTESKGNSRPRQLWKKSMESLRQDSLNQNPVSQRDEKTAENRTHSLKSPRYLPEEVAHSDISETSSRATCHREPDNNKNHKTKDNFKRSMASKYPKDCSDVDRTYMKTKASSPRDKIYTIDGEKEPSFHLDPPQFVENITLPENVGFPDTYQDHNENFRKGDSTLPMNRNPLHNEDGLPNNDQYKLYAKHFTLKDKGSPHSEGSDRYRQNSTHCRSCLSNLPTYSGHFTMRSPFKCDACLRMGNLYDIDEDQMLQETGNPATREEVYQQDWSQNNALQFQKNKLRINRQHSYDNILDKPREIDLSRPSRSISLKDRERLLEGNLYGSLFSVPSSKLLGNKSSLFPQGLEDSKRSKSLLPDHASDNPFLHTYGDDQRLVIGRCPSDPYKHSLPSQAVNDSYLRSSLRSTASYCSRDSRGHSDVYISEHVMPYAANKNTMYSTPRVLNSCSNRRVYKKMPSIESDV
UniProt Q00960, 27-1482: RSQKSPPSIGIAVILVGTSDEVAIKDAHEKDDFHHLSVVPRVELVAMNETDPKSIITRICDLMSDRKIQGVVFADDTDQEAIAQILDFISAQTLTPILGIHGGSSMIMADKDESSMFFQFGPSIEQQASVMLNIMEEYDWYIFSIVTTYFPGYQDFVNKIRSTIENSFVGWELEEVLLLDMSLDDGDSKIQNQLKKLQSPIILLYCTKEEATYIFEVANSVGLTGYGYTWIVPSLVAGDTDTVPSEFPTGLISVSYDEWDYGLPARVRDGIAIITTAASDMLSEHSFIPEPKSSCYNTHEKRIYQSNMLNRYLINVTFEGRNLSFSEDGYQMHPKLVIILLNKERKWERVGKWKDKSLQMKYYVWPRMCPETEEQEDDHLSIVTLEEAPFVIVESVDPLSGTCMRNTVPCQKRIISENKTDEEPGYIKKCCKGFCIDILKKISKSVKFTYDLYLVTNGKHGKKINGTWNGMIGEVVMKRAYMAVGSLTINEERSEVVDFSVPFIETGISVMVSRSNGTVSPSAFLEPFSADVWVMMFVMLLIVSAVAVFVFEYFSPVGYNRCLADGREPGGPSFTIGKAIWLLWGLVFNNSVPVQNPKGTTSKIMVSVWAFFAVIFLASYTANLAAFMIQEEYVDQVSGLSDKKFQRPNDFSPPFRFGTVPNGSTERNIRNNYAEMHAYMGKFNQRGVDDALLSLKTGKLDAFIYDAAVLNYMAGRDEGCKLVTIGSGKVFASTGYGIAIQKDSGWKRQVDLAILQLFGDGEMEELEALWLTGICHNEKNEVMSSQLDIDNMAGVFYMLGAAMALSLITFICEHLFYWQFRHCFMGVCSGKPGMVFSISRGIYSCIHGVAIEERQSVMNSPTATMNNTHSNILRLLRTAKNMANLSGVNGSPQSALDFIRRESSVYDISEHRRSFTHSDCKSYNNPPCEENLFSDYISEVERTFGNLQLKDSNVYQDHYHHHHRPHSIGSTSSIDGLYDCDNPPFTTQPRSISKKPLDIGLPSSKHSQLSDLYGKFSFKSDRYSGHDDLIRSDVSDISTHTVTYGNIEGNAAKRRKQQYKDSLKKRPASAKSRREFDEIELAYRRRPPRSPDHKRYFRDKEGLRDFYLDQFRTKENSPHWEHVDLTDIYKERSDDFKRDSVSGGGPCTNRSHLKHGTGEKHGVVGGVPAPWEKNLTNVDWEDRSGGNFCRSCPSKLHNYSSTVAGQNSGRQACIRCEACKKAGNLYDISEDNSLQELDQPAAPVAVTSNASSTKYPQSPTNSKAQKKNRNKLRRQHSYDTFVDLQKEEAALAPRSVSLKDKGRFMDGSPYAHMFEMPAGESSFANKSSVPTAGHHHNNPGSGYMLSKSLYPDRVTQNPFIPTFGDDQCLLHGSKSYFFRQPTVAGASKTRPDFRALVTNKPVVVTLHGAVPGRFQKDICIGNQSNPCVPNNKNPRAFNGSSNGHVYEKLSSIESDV

[2] = target: T2, NMDARs of RVLM-projecting PVN neurons (Rattus norvegicus, UniProt P35439+Q00959+Q00960); experiment: Recordings of RVLM-projecting PVN neurons in slices of WKY rats and SHRs; assay type: cell-based
T2 construct: from tissue; host or cells: rat hypothalamic slices containing the PVN (Sprague-Dawley, WKY, SHR) and synaptosomes made from them

[3] = target: T3, NMDARs of spinally projecting PVN neurons (Rattus norvegicus, UniProt P35439+Q00959+Q00960); experiment: Recordings of spinally projecting PVN neurons in rat brain slices (Ang II); assay type: cell-based; settings: bath AP5 50 μmol/L
T3 construct: from tissue; host or cells: rat hypothalamic slices containing the PVN (Sprague-Dawley, WKY, SHR) and synaptosomes made from them

[4] = target: presynaptic NMDARs of spinal lamina II neurons (Rattus norvegicus, UniProt P35439+Q00959+Q00960)
[5] = target: T4, NMDARs of spinal dorsal horn neurons (Rattus norvegicus, UniProt P35439+Q00959+Q00960); experiment: Electrophysiological recordings in rat spinal cord slices (SNL, Cacna2d1 vector); assay type: cell-based; settings: Cacna2d1 vector rats; AP5 application within 5 min
T4 construct: from tissue; host or cells: rat lumbar spinal cord slices (lamina II neurons) and synaptosomes made from them
Procedure: Electrophysiological recordings in spinal cord slices: Anesthesia was induced in rats or mice with isoflurane and removed the lumbar spinal cords via laminectomy. […] The spinal cord slices were placed in a glass bottom chamber and continuously perfused with Krebs solution at 5.0 ml/min at 34° C. maintained by an inline solution heater and a temperature controller.
It becomes impossible to visualize neurons in other laminas in adult (>10-week-old) rodent spinal cords because of heavy laminar myelination. […] The tip of the puff pipette was placed 150 μm away from the recorded neuron.
In some experiments, the attached dorsal root was electrically stimulated with a stimulating electrode (0.5 ms, 0.6 mA and 0.1 Hz) to evoke monosynaptic excitatory postsynaptic currents (EPSCs). The α-amino-3-hydroxy-5-methyl-4-isoxazolepropionic acid receptor (AMPAR)-mediated EPSCs were recorded at a holding potential of −60 mV in the presence of 10 μM bicuculline and 1 μM strychnine, whereas NMDAR-mediated EPSCs were recorded at +40 mV in the presence of 10 μM 6-cyano-7-nitroquinoxaline-2,3-dione, 10 μM bicuculline, and 1 μM strychnine. […] All signals were recorded using an amplifier (MultiClamp700B; Axon Instruments Inc., Union City, Calif.), filtered at 1-2 kHz, digitized at 10 kHz, and stored for off-line analysis. […]

[6] = paclitaxel-treated rats, AP5 50 μM, pregabalin 20 μM, peptides 1 μM

(2R)-amino-5-phosphonopentanoate [AP5]
amplitude or PPR of evoked EPSCs, AP5 after gabapentin incubation [1]: had no significant effect
amplitude or PPR of evoked EPSCs, AP5 after α2δ-1Tat peptide [1]: had no significant effect
frequency of mEPSCs, AP5 in α2δ-1Tat peptide-incubated neurons [1]: had no effect
PPR of monosynaptic EPSCs, AP5 in control peptide-treated neurons ([1]; AP5 50 μM): increased
amplitude of monosynaptic EPSCs, AP5 in control peptide-treated neurons ([1]; AP5 50 μM): markedly reduced
frequency of mEPSCs, AP5 in control peptide-incubated neurons ([1]; AP5 50 μM): significantly reduced
frequency or amplitude of mEPSCs, subsequent AP5 after gabapentin ([1]; AP5 50 μM): had no effect
frequency of mEPSCs in dorsal horn neurons ([1]; AP5 50 μM, gabapentin 100 μM, peptide 1 μM for 60 min): largely normalized
amplitude of monosynaptic evoked EPSCs ([1]; AP5 50 μM, gabapentin 100 μM, peptides 1 μM for 60 min): significantly reduced
paired-pulse ratio (PPR) of monosynaptically evoked EPSCs ([1]; vehicle-incubated slices, AP5 50 μM): increased
frequency of mEPSCs, subsequent AP5 in slices pretreated with gabapentin ([2]; SHRs): no longer had any effect
mEPSCs, further AP5 after α2δ-1Tat peptide ([2]; SHRs, AP5 50 μmol L-1): no longer had any effect
baseline frequency of mEPSCs of labelled PVN neurons ([2]; SHRs, AP5 50 μmol L-1, gabapentin 100 μmol L-1, peptides 1 μmol L-1, 60 min): readily normalized
frequency or amplitude of mEPSCs of labelled PVN neurons ([2]; WKY rats): had no effect
frequency of mEPSCs in vehicle-treated slices [3]: had no effect
increased mEPSC frequency in slices treated with Ang II plus the control peptide [3]: normalized
mEPSC frequency in slices treated with Ang II plus pregabalin [3]: had no effect
mEPSC frequency in slices treated with Ang II plus α2δ-1Tat peptide [3]: had no effect
Ang II-induced increase in mEPSC frequency ([3]; Ang II (plus vehicle) slices): rapidly reversed; also recorded: readily normalized
PPR, AP5 in α2δ-1Tat peptide-treated neurons ([4]; paclitaxel-treated rats): had no effect
amplitude of evoked EPSCs, AP5 in control peptide-incubated neurons ([4]; paclitaxel-treated rats): returned the amplitude of evoked EPSCs to the level observed in vehicle-treated rats
amplitude of evoked EPSCs, subsequent AP5 after α2δ-1Tat peptide ([4]; paclitaxel-treated rats): had no effect
frequency of mEPSCs, subsequent AP5 in α2δ-1Tat peptide-treated slices ([4]; paclitaxel-treated rats): had no effect
reduced PPR of evoked EPSCs ([4]; paclitaxel-treated rats): reversed
reduced PPR, AP5 in control peptide-treated neurons ([4]; paclitaxel-treated rats): reversed the reduced PPR
frequency of mEPSCs, subsequent AP5 in pregabalin-treated neurons ([4]; paclitaxel-treated rats, AP5 50 μM): no longer had any effect
increased amplitude of evoked monosynaptic EPSCs [4, 6]: rapidly reversed
increased frequency of mEPSCs of lamina II neurons [4, 6]: rapidly reversed
PPR of evoked EPSCs ([4]; vehicle-treated rats): had no effect
amplitude of evoked monosynaptic EPSCs ([4]; vehicle-treated rats, AP5 50 μM, pregabalin 20 μM, peptides 1 μM): had no effect
increase in the mEPSC frequency induced by Cacna2d1 overexpression [5]: normalized

Reference: patent US11787839B2, “Targeting α2δ-1-bound glutamate receptors for treating diseases and disorders” (Board of Regents, The University of Texas System, priority 2017, dated 2023)
